Laboratory results published in patent publication US8455439B2, “Antidotes for factor Xa inhibitors and methods of using the same in combination with blood coagulating agents” (Portola Pharmaceuticals, Inc., priority 2008, dated 2013).
“Also recorded” adds a separate entry of the source.

Assays:
Assay type in all cases: biochemical
procoagulant activity = test: Procoagulant activity of active-site mutant by clotting / fXa activity assays; details: in vitro clotting / fXa activity assays
[1] = test system: human platelet poor plasma; test: Clotting prolongation assay, 96-well plate format (OD405 turbidity change, aPTT reagent)
Experimental: (§1) Two clotting assay formats were used to test the effects of factor Xa inhibitors and the antidote on clotting prolongation. In the first format, a 96-well plate was used to measure multiple samples at the same time. In the second assay format, aPTT was measured with a conventional coagulation instrument (MLA Electra 800 automatic coagulation timer).
In the 96-well plate format method, human platelet poor plasma or platelet rich plasma was prepared similarly as procedures in Example 2. 75-100 μL plasma was recalcified with CaCl2, incubated at 37° C. for 3 minutes and clot formation was initiated by adding tissue factor (Innovin, Dade Behring) or an aPTT reagent (Actin FS, Dade Behring). Change of OD405 was monitored continuously by a plate reader (Molecular Devices). Clotting time was defined as the time (second) when the half maximal value of absorbance (0D405 nm) change was reached. Factor Xa inhibitor and antidote, when present, were pre-incubated with plasma at room temperature for 20 minutes before initiation of the reaction.
In FIG. 18, the effect of r-Antidote to reverse the inhibitory effect of LMWH enoxaparin (Sanofi-Aventis) was tested by turbidity changes in human plasma. Enoxaparin (0-1.25 U/mL) was incubated at 22° C. for 20 min with or without 508 nM r-Antidote. Turbidity changes were measured according to procedures described in Example 3. 508 nM r-Antidote substantially corrected (>75%) the inhibitory effect of 0.3125-1.25 U/mL Enoxaparin.
Turbidity change of human platelet poor plasma (PPP) with an aPTT reagent (Actin FS) was monitored according to procedure described in Example 3.

[2] = test system: thrombin generation in human plasma; test: Thrombin generation assay in platelet poor or platelet rich plasma; details: 680 nM antidote, varying betrixaban; FIG. 9
Experimental: PRP and PPP were prepared by spinning the anticoagulated blood at ˜100× gravity or 1000× gravity for 20 minutes, respectively, at room temperature. 75-100 microliter (uL) plasma was mixed with CaCl2 and Z-Gly-Gly-Arg-aminomethylcoumarin (Z-GGR-AMC, a thrombin fluorogenic substrate). Tissue factor (Innovin, Dade Behring) was added to initiate the generation of thrombin. For a typical experiment, the reaction mixture contained 15 millimolar (mM) Ca^2+, 100 micromolar (μM) Z-GGR-AMC, and 0.1 nanomolar (nM) tissue factor (TF) (Innovin). Thrombin formation was monitored continuously at 37° C. by a fluorometric plate reader (Molecular Devices) measuring the relative fluorescence units (RFU). Inhibitor and antidote, when present, were pre-incubated with plasma for 20 minutes at room temperature before initiation of thrombin generation.
The results of various experiments using this assay may be found in FIGS. 4, 6, and 9.
PRP and PPP were prepared by spinning the anticoagulated blood at ˜100× gravity or 1000× gravity for 20 minutes, respectively, at room temperature. […] Tissue factor (Innovin, Dade Behring) and CaCl2 were added to initiate the generation of thrombin. For a typical experiment, the reaction mixture contained 15 millimolar (mM) Ca^2+, 100 micromolar (μM) Z-GGR-AMC, and 0.1 nanomolar (nM) tissue factor (TF) (Innovin). Thrombin formation was monitored continuously at 37° C. by a fluorometric plate reader (Molecular Devices) measuring the relative fluorescence units (RFU). When present, the inhibitor and the antidote were pre-incubated with plasma for 15 minutes at room temperature before initiation of thrombin generation. Recombinant VIIa (rVIIa, Novoseven), when present, was added before addition of TF to initiate the reaction.

pooled human plasma = test: aPTT clotting assay, MLA Electra 800 automatic coagulation timer; details: FIG. 13
Experimental: as §1
In FIG. 19, the effect of r-Antidote on reversal of anticoagulation by a low molecular weight heparin (LMWH enoxaparin, Sanofi-Aventis) was tested in a human plasma clotting assay. The effect of 1 antiXa Unit/mL LMWH on aPTT prolongation of plasma and the reversal of inhibitory effect was measured by a MLA Electra 800 Automatic coagulation timer. 100 μL pooled citrate anticoagulated human plasma was mixed with enoxaparin and different concentrations of antidote. Prior to measurement of clotting time, aPTT reagent (Actin FS, Dade Behring) and CaCl2 were added per manufacturer's instructions.

purified human thrombin = target: T1, purified human thrombin (Homo sapiens, UniProt P00734); test: Thrombin chromogenic assay (S2288) with argatroban; details: antidote up to 538 nM; thrombin 5 nM; argatroban 50 nM; FIG. 12
T1 construct: catalyzes the conversion of prothrombin to thrombin
Experimental: The effect of the antidote des-Gla anhydro-fXa on thrombin activity toward a chromogenic substrate S2288 (200 μM) was measured similarly as before with or without Argatroban, a specific small molecule Ha inhibitor.
After incubation at room temperature for 20 min, an amidolytic substrate S2288 (200 uM) was added to the mixture and the rate of p-nitroanilide substrate cleavage was monitored by absorbance at 405 nm.

“fX-S395A: recombinant active-site mutant said to have essentially no procoagulant activity” was tested, and the procoagulant activity (procoagulant activity) was “essentially has no procoagulant activity”.

“fX: human factor X (Hematologic Technologies)” was tested, and the “reduction of clotting time” value ([1]; 170 nM fX, plasma with or without 125 nM betrixaban, FIG. 26) was ~20%.

B1: pd-Antidote: des-Gla anhydro fXa derivative having the amino acid residues of SEQ ID NO. 10 (protein)
chain: KDGDQCETSPCQNQGKCKDGLGEYTCTCLEGFEGKNCELFTRKLCSLDNGDCDQFCHEEQNSVVCSCARGYTLADNGKACIPTGPYPCGKQTLERIVGGQECKDGECPWQALLINEENEGFCGGTILSEFYILTAAHCLYQAKRFKVRVGDRNTEQEEGGEAVHEVEVVIKHNRFTKETYDFDIAVLRLKTPITFRMNVAPACLPERDWAESTLMTQKTGIVSGFGRTHEKGRQSTRLKMLEVPYVDRNSCKLSSSFIITQNMFCAGYDTKQEDACQGDAGGPHVTRFKDTYFVTGIVSWGEGCARKGKYGIYTKVTAFLKWIDRSMKTRGLPKAKSHAPEVITSSPLK
modifications: anhydro active-site serine
In the case of B1, the “effect on anticoagulant activity of enoxaparin” value ([1]; 563 nM antidote, enoxaparin 0.3125-1.25 U/mL, FIG. 11) is reported as “capable of reversing; also recorded: significantly neutralized”, the “reversal of the anticoagulant activity of betrixaban” value [2] is reported as “complete reversion; also recorded: substantially complete restoration of fXa activity” and the “effect on aPTT of control plasma” value (pooled human plasma; antidote alone, highest concentration tested 2576 nM) is reported as “no effect on aPTT”. For the same molecule, the EC50 (pooled human plasma; with 400 nM betrixaban, read-out: EC50 of the antidote) was ~656 nM and the “effect on thrombin activity and its inhibition by argatroban” value (purified human thrombin) was “did not exhibit significant antidote activity; also recorded: does not detectably affect”.
